# Values quoted from earlier work in patent US20040247524A1, “Method of treatment of an inflammatory disorder with a Vanin-1 antagonist” (priority 2003, published 2004).
# Tested on: Vanin-1
# Conditions: cited from earlier work
structure (smiles),measurement,value
CC(C)(CO)[C@@H](O)C(=O)NCCC(=O)NCCSSCCNC(=O)CCNC(=O)[C@H](O)C(C)(C)CO [pantethine],type of Vanin-1 (pantetheinase) inhibition,reversible inhibition
